scFv variants of Ab-14 (light chain) against a SARS-CoV-2 spike peptide

Binding partner: SARS-CoV-2 spike HR2 peptide, sequence PDVDLGDISGINAS.

The variants keep the heavy chain, the linker and the frameworks of Ab-14 (scFv order VH, the linker GGGGSGGGGSGGGGS, VL).
VH: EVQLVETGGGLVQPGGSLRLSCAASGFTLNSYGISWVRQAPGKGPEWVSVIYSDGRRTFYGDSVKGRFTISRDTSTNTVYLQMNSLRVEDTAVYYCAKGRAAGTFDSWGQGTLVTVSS
VL: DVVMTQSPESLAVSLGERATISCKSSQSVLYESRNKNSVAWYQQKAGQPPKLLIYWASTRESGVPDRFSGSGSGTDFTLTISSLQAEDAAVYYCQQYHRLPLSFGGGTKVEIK

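Phage display of a naive human antibody library on the peptide gave the parent. The variants were designed computationally from a first round of random CDR variants and then made and measured. Several design methods are mixed in this list. The assay is AlphaSeq: two haploid yeast populations carry antibody and antigen on their surface. Binding brings cells together so that they mate, and sequencing counts the barcode pairs among the diploids. The ratio of observed to expected reads was calibrated, replicate by replicate, on BCL2-family standards whose Kd was known from biolayer interferometry. There are six technical replicates.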

Each variant is given by its three light chain CDRs, as the data file delimits them; those of the parent are KSSQSVLYESRNKNSVA, WASTRES, QQYHRLPLS.
The read-out is the apparent dissociation constant on a log10 scale (nM): the lower, the stronger.
A mean of the replicates is given; it leaves out those without a signal.
"not detected" marks a missing value. The strain was present, yet no cells mated with the target were sequenced in any replicate, which points to weak or no binding.
The range of this assay differs from that of the first round, and the authors advise against merging the two.
In the paper, a design with two or fewer of six values counts as a poor binder.
Of ten entries with the parent sequence, four were seen in most replicates (averages 0.34 to 2.37), three in one and three in none, so single entries are noisy.
As a blank, each scFv also met three strains without target: over all light chain designs, 4% of these pairings were detected, typically at 2.64 and seldom below 1.59.

| # | CDR-L1 | CDR-L2 | CDR-L3 | log10 Kd (nM), mean | seen in |
|---|---|---|---|---|---|
| 1 | QLQWLAINGQGVMNNIA | DRVQEQM | QQYFRLPFT | 1.55 | 2 of 6 |
| 2 | IISGSMLVESRNKNSVA | NAETREY | QHYDRLPLS | 1.65 | 6 of 6 |
| 3 | HITYGMQVMGRHMESIA | QAEERAK | QQYDRLPLA | 2.22 | 6 of 6 |
| 4 | IIAQLMFWGNKSANSIA | QAEERTN | QQYHHLPLS | not detected | 0 of 6 |
| 5 | KSSQSVLPESRHKNSVA | WASTRES | QQYHRLPLS | 2.57 | 1 of 6 |
| 6 | MLTWDDDHETGRQNSIA | DAHERNT | QQYHQLPLI | 0.39 | 6 of 6 |
| 7 | KVLQSWLYESRNKNSVA | HASTREQ | QQYHRLPLS | 0.42 | 6 of 6 |
| 8 | TIGQTLMAGIRNRSNVA | EVSQRLN | QQYDRLPLL | 0.78 | 6 of 6 |
| 9 | KLSQITGHMSVSKNNVA | EMVTRVN | QQYARLPLS | 0.98 | 6 of 6 |
| 10 | KLSQSVLYESRNKWSVA | GASTRES | QQYHRLPLS | 0.49 | 6 of 6 |
| 11 | KSSQSVLAGSTEKNSVA | WASTRES | QQYHRLPLS | 1.53 | 6 of 6 |
| 12 | NLVGRVEDNQTENNAIA | DMHCRAG | QQYSRLPLS | 1.85 | 6 of 6 |
| 13 | KCEISVMQWDRNKNSVA | NASCRES | QQYHRLPLS | 1.00 | 6 of 6 |
| 14 | QLGKNQVGETLMQHAIA | HDALRVD | QQYFRLPLL | 0.74 | 6 of 6 |
| 15 | HIDWLNRGETLKKDDIA | NANHREQ | QQYFHLPLV | 0.42 | 6 of 6 |
| 16 | MIAESVGYQSRNKNSVA | DNSTREN | QCYDRLPLS | 2.13 | 6 of 6 |
| 17 | KLVGSWQYESRNKNSVA | HASQRCS | QQYHRLPLS | 1.48 | 6 of 6 |
| 18 | TLMQVGGYESNAHNSIA | DLRTRED | QQYHRLPLS | 1.06 | 6 of 6 |
| 19 | MLSQMFGLGMKTSNSVA | QASMRFN | QQYDRLPLI | 1.60 | 5 of 6 |
| 20 | KSQQSQLYESRNKNSVA | NASTRLS | QQYHRLPLS | 0.15 | 6 of 6 |
| 21 | KASPSEEYESRMKNSVA | NASTRYE | QQYHRLPLS | -0.05 | 6 of 6 |
| 22 | KLQQSVLYESRNKNSVA | NASQREV | QQYHRLPLS | 0.35 | 6 of 6 |
| 23 | KLQEQKLYWSRNKNSVA | EASTRES | QQYHRLPLS | 0.55 | 6 of 6 |
| 24 | KSSQSVLYESENKNSVA | EASTRES | QQYQRLPLS | 0.92 | 4 of 6 |
| 25 | IISDLMLYGSRNKNPIA | NASTREY | QQYHRLPLE | 0.83 | 6 of 6 |
| 26 | KSSQSVLYESRNKNSVA | DASTRES | QQGHRLPLS | 2.43 | 1 of 6 |
| 27 | KSGQSVLYESRNENSVA | HASTREL | QQYHRKPLS | 1.90 | 6 of 6 |
| 28 | KSSQSLLYESRNKNSVA | WASTRES | QQYHTLPLS | 2.71 | 3 of 6 |
| 29 | MVTQMAMSGMTNKRSVA | NAETREH | QQYHRLPLI | 1.45 | 6 of 6 |
| 30 | SLMQVGGYESNNKHSIA | DLRTRES | QQYHRLPLS | 0.40 | 6 of 6 |
| 31 | KLMISVEYESRNQNSVA | SASYRED | QQYHRLPLS | 1.08 | 6 of 6 |
| 32 | TLGDVTRMESNKKSSIA | DMSNRAD | QQYHRLPLE | 0.34 | 6 of 6 |
| 33 | IMSQSVLYESRNKNSVA | GASTRES | QQYHRLPLS | 0.11 | 6 of 6 |
| 34 | KSSQSFLYESLWKNSVA | GASQRES | QQYHRLPLS | 0.47 | 6 of 6 |
| 35 | IISQSMLYESRNWNSVA | NASTRWS | QQYHRLPLS | 0.71 | 6 of 6 |
| 36 | KQSQSVDYESRNKNSVA | DASTRES | QQYHRLPLD | 0.72 | 6 of 6 |
| 37 | KSSQDVLYESRNKNSVA | WAVTREV | QQYYRLPLW | 0.79 | 6 of 6 |
| 38 | KSSSSVLYESRNKNSVA | WDSTRES | QQYHRLPLS | 2.31 | 6 of 6 |
| 39 | HVSEMTFAQMKARNSVA | ENNTREA | QQYDRLPLS | not detected | 0 of 6 |
| 40 | KLSISYLYESRNTNSVA | EASTRES | QQYHRLPLS | 0.02 | 6 of 6 |
| 41 | KLQQSWEYESRNSNSVA | QASTRMA | QQYHRLPLS | 0.34 | 6 of 6 |
| 42 | KSQQSWEYESRNSNSVA | QASTRMV | QQYHRLPLI | -0.09 | 6 of 6 |
| 43 | KLLQSVNYGSRAVNSVA | QMETRED | QQYHRLPLS | 1.46 | 6 of 6 |
| 44 | KVSQSVLYEQRNKNSVA | NASTRMS | QQYHRLPLS | 0.08 | 6 of 6 |
| 45 | MIAQGLRGVGRNKNSVA | NAQTREN | QHYHRLPLS | 1.94 | 6 of 6 |
| 46 | KITATMRFEQKESNNIA | EVTTRSK | QQYYRLPLS | 0.95 | 6 of 6 |
| 47 | KQSQQFLYESRNKNSVA | DANTRES | QQYHRLPLS | -0.39 | 6 of 6 |
| 48 | KVSIEDDGGDRNKNSVA | HASLRES | QQYHRLPLS | -0.04 | 6 of 6 |
| 49 | RINTALKTVDDHYSNVA | EQRLTSE | QQYFRLPLS | 1.36 | 6 of 6 |
| 50 | HFAKQLGSLYNSKQNVA | NASTVMV | QHYNRLPLS | 0.95 | 6 of 6 |
| 51 | SLGLVTMLEYAGRNNVA | NNSTRET | QQYDRLPLS | 1.70 | 6 of 6 |
| 52 | KVSPEWWYWSRNKASVA | HASTRES | QQYHRLPLS | 2.24 | 6 of 6 |
| 53 | KLEQSIEYESRNKNSVA | NASTREQ | QQYHRLPLS | -0.34 | 6 of 6 |
| 54 | QFSNVNMQGNAMWANVA | EATYAEE | QQYARLPLQ | 1.35 | 1 of 6 |
| 55 | TLYMGPTEARMDKHNIA | GMSEREE | QQYHLLPLV | 1.42 | 6 of 6 |
| 56 | KISQSVLYESTNKNSVA | WASTRES | QQYHRLPLS | 0.92 | 6 of 6 |
| 57 | HMSALTLMGSRNRNSVA | QMTTREN | QQYDRLPLV | 1.87 | 6 of 6 |
| 58 | KVSQSMLYESRNKNSVA | EASTRES | QQYHRLPLS | -0.14 | 6 of 6 |
| 59 | TISQLHNMGTFAINSVA | QASLRNE | QQYDRLPLT | 1.31 | 6 of 6 |
| 60 | KSSLSVLYESRNKNSVA | TASTRES | QQYHRLPLS | 1.99 | 6 of 6 |

For reference, 5 entries of the list once more:

{"CDR-L1": "RINTALKTVDDHYSNVA", "CDR-L2": "EQRLTSE", "CDR-L3": "QQYFRLPLS", "log10 Kd (nM), mean": "1.36", "seen in": "6 of 6"}
{"CDR-L1": "KSGQSVLYESRNENSVA", "CDR-L2": "HASTREL", "CDR-L3": "QQYHRKPLS", "log10 Kd (nM), mean": "1.90", "seen in": "6 of 6"}
{"CDR-L1": "SLMQVGGYESNNKHSIA", "CDR-L2": "DLRTRES", "CDR-L3": "QQYHRLPLS", "log10 Kd (nM), mean": "0.40", "seen in": "6 of 6"}
{"CDR-L1": "KVSQSVLYEQRNKNSVA", "CDR-L2": "NASTRMS", "CDR-L3": "QQYHRLPLS", "log10 Kd (nM), mean": "0.08", "seen in": "6 of 6"}
{"CDR-L1": "HITYGMQVMGRHMESIA", "CDR-L2": "QAEERAK", "CDR-L3": "QQYDRLPLA", "log10 Kd (nM), mean": "2.22", "seen in": "6 of 6"}

Data: MIT Lincoln Laboratory AlphaSeq set, Li et al. 2023, doi:10.1038/s41467-023-39022-2, as distributed in FLAb.